From patent publication US9586914B2, “Modulators of C3a receptors” (THE UNIVERSITY OF QUEENSLAND, priority 2011, dated 2017)

Tests used:
[1] = biological target: T1, C3a receptor (C3aR) (Homo sapiens, UniProt Q16581); test: Competitive binding with [^125I]-C3a in HMDM; details: for -Log IC50: Table 14, binding affinity for C3aR on HMDM
T1 construct: peripheral blood mononuclear cells were isolated from buffy coat (obtained from Australian Red Cross Blood Service, Kelvin Grove); endogenous in cells; host or cells: primary human monocyte-derived macrophages (HMDM) differentiated from CD14+ monocytes of donor buffy coat
T1 sequence (Q16581 1-482): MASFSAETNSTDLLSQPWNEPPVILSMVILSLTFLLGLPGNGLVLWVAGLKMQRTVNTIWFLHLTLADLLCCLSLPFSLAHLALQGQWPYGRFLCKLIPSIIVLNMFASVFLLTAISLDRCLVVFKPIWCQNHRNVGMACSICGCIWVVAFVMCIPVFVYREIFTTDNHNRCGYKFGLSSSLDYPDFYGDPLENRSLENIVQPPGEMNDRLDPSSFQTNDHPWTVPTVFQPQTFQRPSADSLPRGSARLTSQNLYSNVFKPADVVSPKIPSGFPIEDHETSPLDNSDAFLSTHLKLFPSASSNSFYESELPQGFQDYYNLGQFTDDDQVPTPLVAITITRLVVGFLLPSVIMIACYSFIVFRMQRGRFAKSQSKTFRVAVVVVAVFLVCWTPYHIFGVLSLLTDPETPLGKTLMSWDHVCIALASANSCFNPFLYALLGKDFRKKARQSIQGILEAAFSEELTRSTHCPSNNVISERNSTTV
Excerpt: For HMDM, peripheral blood mononuclear cells were isolated from buffy coat (obtained from Australian Red Cross Blood Service, Kelvin Grove) using Ficoll-paque density centrifugation (GE Healthcare Bio-Science, Uppsala, Sweden). CD^14+ monocytes were positively selected using CD^14+ MACS magnetic beads (Miltenyi Biotech, Auburn, Calif., USA). […] Cells were harvested by gentle scraping in saline solution and replated for use on Day 7. […] Unbound radioactivity was removed by filtration through glass microfiber filters GF/B (Whatman Iner. […] The filter was washed 3 times with cold buffer (50 mM Tris-HCl) pH 7.4. […] The −log IC50 for each compound was calculated for separate experiments and express as an arithmetic mean standard error (SE). IC50 values were expressed as a geometric mean.

[2] = biological target: T2, C3aR (Homo sapiens, UniProt Q16581); test: Calcium mobilization assay in HMDM (agonist/antagonist activity); assay type: cell-based
T2 construct: peripheral blood mononuclear cells were isolated from buffy coat (obtained from Australian Red Cross Blood Service, Kelvin Grove); endogenous in cells; host or cells: primary human monocyte-derived macrophages (HMDM) differentiated from CD14+ monocytes of donor buffy coat
T2 sequence (Q16581 1-482): T1 sequence (Q16581 1-482)
Protocol: Harvested HMDM cells were washed with 0.9% NaCl solution by centrifugation at 2500 rpm for 5 min, followed by resuspension of the cell pellet with complete media. Cells were seeded at 5×10^4 cells/well in a 96-well black-wall, clear bottom plate (DKSH, Zurich), and left overnight to adhere at 37° C. On the day of the experiment, supernatant was removed and cells were incubated in dye loading buffer (Hank's Balanced Salt Solution (HBSS) with 4 μM Fluo-3, 25 μL pluronic acid, 1% fetal bovine serum (FBS) and 2.5 mM probenecid) for one hour at 37° C. Cells were then washed twice with HBSS and transferred to a Fluorostar spectrofluorimeter (BMG, Durham N.C.) for oxazole compound injection and fluorescence measurements.
Various compounds were examined in the calcium mobilization assay for agonist or antagonist activity compared to hC3a and to the known antagonist SB290157.
HMDMs were seeded into black-wall, clear bottom 96-well plates (Corning Incorporated, NY) at 50,000 cells/well and left to incubate at 37° C. with 5% CO2 overnight for cells to adhere. The medium was removed before being washed with the assay buffer (1×HBSS, 20 mM HEPES, 2.5 mM probenecid, pH 7.4). To each well was added 100 μL of dye-loading buffer made up of 12 mL calcium buffer, 1% FBS, 25 μL of Fluo-3 dye (final concentration of 4 μM) and 25 μL of 20% pluronic acid. […] To each well was added 50 μL of fresh assay buffer before the plate was loaded into a FLIPR (Fluorescent Imaging Plate Reader) that can inject treatments and measure any calcium release. To generate agonist plots, calcium release was monitored for 300 seconds. To generate antagonist plots, calcium release was recorded for 900 seconds, which at the same time would allow incubation for the antagonists. After the initial incubation period, an agonist would be added and the response was recorded for 300 seconds. Intracellular release of calcium was recorded via fluorescence measurements at wavelength of 485 nm for excitation and 520 nm for emission.

-Log IC50 [1] | EC50 ([2]; Table 9, Ca^2+ mobilization, HMDM, read-out: EC50) | IC50 ([2]; Table 10, HMDM, read-out: Antagonist Activity Ca^2+ IC50) | EC50 ([2]; Table 12, read-out: Apparent Agonist Activity EC50) | IC50 ([1]; Table 6, competitive binding with [^125I]-C3a, HMDM, read-out: IC50 (converted)) | IC50 ([1]; Table 6, competitive binding with [^125I]-C3a, HMDM, read-out: pIC50 ± SEM (converted)) | IC50 ([1]; Table 8, HMDM, read-out: Receptor Binding Affinity ^125I IC50) | IC50 ([1]; Table 12, read-out: Receptor Binding Affinity IC50) | IC50 ([1]; Table 12, read-out: Receptor Binding Affinity pIC50 ± SE (converted)) | SMILES
8.2 |  |  |  |  |  |  |  |  | N=C(N)NCCC[C@H](NC(=O)c1cnc(C(c2ccccc2)c2ccccc2)[nH]1)C(=O)O [Compound 77, 2-Diphenylmethyl-thiazole-4-carboxyl-Arg-OH]
7.3 | 645 nM | 1800 nM | 645 nM | 1300 nM | 1320 nM | 302 nM | 1300 nM | 1320 nM | N=C(N)NCCC[C@H](NC(=O)c1ccc(C(c2ccccc2)c2ccccc2)o1)C(=O)O [Compound 57, 5-Diphenylmethyl-furan-2-carboxyl-Arg-OH]

Like-named read-outs stand apart in the source and are kept apart here.
